Apparent affinities of Ab-14 variants for a coronavirus HR2 peptide

Data: MIT Lincoln Laboratory AlphaSeq set, Engelhart et al. 2022, doi:10.1038/s41597-022-01779-4, as distributed in FLAb.

All variants were tested on one target, the spike HR2 peptide PDVDLGDISGINAS (SARS-CoV-2).

The variants keep the light chain, the linker and the frameworks of Ab-14 (scFv order VH, three GGGGS repeats, VL).
VH: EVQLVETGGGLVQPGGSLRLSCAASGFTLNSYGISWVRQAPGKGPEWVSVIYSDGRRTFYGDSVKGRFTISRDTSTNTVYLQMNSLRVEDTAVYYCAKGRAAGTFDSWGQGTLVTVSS
VL: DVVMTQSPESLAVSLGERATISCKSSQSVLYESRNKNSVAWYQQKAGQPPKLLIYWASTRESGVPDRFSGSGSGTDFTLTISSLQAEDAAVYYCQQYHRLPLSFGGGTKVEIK

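The starting antibody came from a phage panning campaign against this peptide. The library (AAYL49) carries one to three amino acid substitutions per variant, with no insertions or deletions. Affinity was read by AlphaSeq, a pooled yeast mating assay with surface-displayed partners. The frequency of each diploid, read from paired DNA barcodes, reflects how well the two displayed proteins bind. Scores were corrected for input abundance and mapped to Kd with protein pairs of known affinity run in the same pool. Mating was done three times.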

The parent's heavy chain CDRs are GFTLNSYGIS, VIYSDGRRTFYGDSVK, GRAAGTFDS; each variant's own CDRs replace them letter for letter.
The read-out is the apparent dissociation constant on a log10 scale (nM): the lower, the stronger.
"nd" means that the variant was in the library but no mating with the target was seen in that replicate; the authors take this as a sign of poor binding, and no number exists.

CDR-H1,CDR-H2,CDR-H3,"replicates, log10 nM",signal with controls
GFTLNSYDIS,VIYSSGRRTFYGDSVK,GRAAGTFDS,nd 3.31 nd,4 of 9 (4.15)
GFTLNSYGIS,VIYSDGRNTFYGDSVK,GRAAGWFDS,nd nd nd,1 of 9 (4.14)
GFTLNSYGIS,VIYSDGRRCEYGDSVK,GRYAGTFDS,1.56 1.48 1.43,1 of 9 (4.38)
GFTLNSYGIS,VSYSDGWRTFYGDSVK,GRAAGTFDW,nd nd nd,3 of 9 (4.12)
GFTLNNYGIS,VIYCDGNRTFYGDSVK,GRAAGTFDS,4.31 5.25 nd,5 of 9 (4.28)
GFTLNSYIIS,HIYSDGRRTFYGDSRK,GRAAGTFDS,nd nd nd,0 of 9
GFTLNSYLIS,VIYSDGRRFFYGDSVK,GWAAGTFDS,3.77 nd nd,0 of 9
GFTMNSYGIS,VIYSDGRRTVYGDSVK,GRAAGTHDS,2.57 1.89 2.26,1 of 9 (3.82)
GFTLNYYGIA,VIYSDGRRTFQGDSVK,GRAAGTFDS,nd nd nd,0 of 9
GFTLNSYGIS,VIYSDGRRTFYGDSVW,RRAAGTNDS,nd nd nd,0 of 9
GFTLNHYGIS,VIYSDGRRTNYGDSVK,GRAFGTFDS,4.94 2.92 4.37,3 of 9 (4.41)
GFILNSNGIS,VIYSDGRRTFYGDSVK,GRIAGTFDS,nd 3.77 nd,4 of 9 (4.32)
GFTLASYGIS,VIYSDGRRTFYGDSVI,GRAAGLFDS,nd 4.93 nd,0 of 9
GFTLNSYTIS,VIYSDGRGTFYGDSVK,HRAAGTFDS,nd nd nd,0 of 9
GFPLNEYGIS,VIYSDGRRTFYGDSVK,GTAAGTFDS,0.05 0.39 0.19,5 of 9 (5.15)
GVTLNSYGIS,VIYSDGRRTFHGDFVK,GRAAGTFDS,nd nd nd,0 of 9
GLTLNSPGIS,VIYSDGRRTFYGDSVK,GRACGTFDS,nd nd nd,2 of 9 (3.90)
GFTLNSQGIS,VIYSDGRRTWYGDSIK,GRAAGTFDS,2.77 nd nd,1 of 9 (3.37)
GFTLNSYGAS,VIYSIGRRTFYGDSVK,GRAAGTRDS,nd nd 3.10,1 of 9 (4.98)
GFTLNSYHIS,VHESDGRRTFYGDSVK,GRAAGTFDS,nd nd nd,1 of 9 (3.70)
GITLNSYGIS,VFYSDGRRTFYGDSVK,GRAAGTFQS,nd nd nd,0 of 9
GFTLNSYEIS,VIYSDGRRNFYGDSVK,GRAKGTFDS,4.46 nd nd,1 of 9 (4.13)
GFTLNNYGIN,VIYSDGRRTFYGTSVK,GRAAGTFDS,nd nd nd,0 of 9
GFTLNSYGIS,VIYSDGRRTFYGDSGK,GRAAGTSDS,nd 3.73 nd,2 of 9 (5.27)
GFTLNSYGIS,VPYHDGRRTFYGDPVK,GRAAGTFDS,nd nd nd,1 of 9 (3.45)
GFTLNSYGIS,VIYSDGRRTFYDDSVS,GRAAHTFDS,1.95 1.91 2.27,0 of 9
GFTLNSYGIQ,VIYSTGRRTFYGDSVK,GRAAGTFDS,nd nd nd,1 of 9 (3.22)
GFTLNSYGIS,VIYCHGRRTFYGDSVV,GRAAGTFDS,4.90 3.24 nd,3 of 9 (4.06)
GFTLNSYGIS,VIYSDGRRSFYGKSVK,TRAAGTFDS,6.04 nd nd,5 of 9 (4.00)
GFTLHSYGIS,VIYSDGRRTFYFDSVK,GRAAGTFDS,nd 4.71 nd,2 of 9 (3.74)
GFTLNSYGIS,VIYSDGRRTFYGDLVK,DRAAGTFDS,nd nd nd,0 of 9

Excerpt, the first 5 entries:

CDR-H1,CDR-H2,CDR-H3,"replicates, log10 nM",signal with controls
GFTLNSYDIS,VIYSSGRRTFYGDSVK,GRAAGTFDS,nd 3.31 nd,4 of 9 (4.15)
GFTLNSYGIS,VIYSDGRNTFYGDSVK,GRAAGWFDS,nd nd nd,1 of 9 (4.14)
GFTLNSYGIS,VIYSDGRRCEYGDSVK,GRYAGTFDS,1.56 1.48 1.43,1 of 9 (4.38)
GFTLNSYGIS,VSYSDGWRTFYGDSVK,GRAAGTFDW,nd nd nd,3 of 9 (4.12)
GFTLNNYGIS,VIYCDGNRTFYGDSVK,GRAAGTFDS,4.31 5.25 nd,5 of 9 (4.28)

Parent in this assay: reference entry 0.65, copy in this library 4.11 (one replicate of three).
Three control strains display no target. For library AAYL49, 15% of the pairings with them gave a signal, with a median of 4.06 and one signal in twenty below 2.83, so weak values seen in few replicates may be background. For each scFv, signals with the empty controls are counted beside the result, with their mean in brackets.